Assay results: patent US20010036948A1 (priority 1998, published 2001)
Like-named read-outs stand apart in the source and are kept apart here.

Test system: T/G Human Aortic Smooth Muscle Cells
Details: scored eight days following treatment

With `COc1ccc2c(c1)=C(NC(C)CCCN(CCCl)CCCl)C1C=CC(Cl)=CC1N=2` (stereo not shown) the Growth score (1 nM, exposure 15 seconds) was 4+, the Growth score (1 nM, exposure 30 seconds) was 4+ and the Growth score (1 nM, exposure 60 seconds) was 4+. The Growth score (1 nM, exposure 90 seconds) was 4+, the Growth score (1 nM, exposure 180 seconds) was 4+ and the Growth score (10 nM, exposure 15 seconds) was 4+. The Growth score (10 nM, exposure 30 seconds) was 4+, the Growth score (10 nM, exposure 60 seconds) was 4+ and the Growth score (10 nM, exposure 90 seconds) was 4+. The Growth score (10 nM, exposure 180 seconds) was 4+, the Growth score (100 nM, exposure 15 seconds) was 3+ and the Growth score (100 nM, exposure 30 seconds) was 3+. For the same compound, the Growth score (100 nM, exposure 60 seconds) was 3+, the Growth score (100 nM, exposure 90 seconds) was 2+ and the Growth score (100 nM, exposure 180 seconds) was 2+. The Growth score (1 μM, exposure 15 seconds) was 2+, the Growth score (1 μM, exposure 30 seconds) was 2+ and the Growth score (1 μM, exposure 60 seconds) was 2+. The Growth score (1 μM, exposure 90 seconds) was 2+, the Growth score (1 μM, exposure 180 seconds) was 1+ and the Growth score (10 μM, exposure 15 seconds) was 1+. For the same compound, the Growth score (10 μM, exposure 30 seconds) was “+/−”, the Growth score (10 μM, exposure 60 seconds) was “+/−” and the Growth score (10 μM, exposure 90 seconds) was “+/−”. The Growth score (10 μM, exposure 180 seconds) was “−/+”.
